The values that follow are results of earlier work, collected in patent publication US20070243132A1, “Transdermal delivery of pharmaceutical agents” (priority 2005, published 2007).

For the data set the following is noted: microemulsion vs preparation with absorption enhancers oleic acid and d-limonene; cited from earlier work.

On to `O=C(O)Cc1ccccc1Nc1c(Cl)cccc1Cl` [diclofenac], for which the “efficiency of transdermal delivery” value is given as “less efficient”.
